Target: Human αvβ3 (Homo sapiens, UniProt P05106+P06756)
Assay: In vitro solid phase purified αvβ3 binding assay (vitronectin/αvβ3)
Conditions: read-out: Antagonist IC50 Activity αVβ3; inhibition of 2 nM vitronectin binding to immobilized αvβ3

Sequences of proteins named here, by UniProt entry; tags and fusion partners are left off. Residues count along the entry.
UniProt P05106, 27-788 limits assumed: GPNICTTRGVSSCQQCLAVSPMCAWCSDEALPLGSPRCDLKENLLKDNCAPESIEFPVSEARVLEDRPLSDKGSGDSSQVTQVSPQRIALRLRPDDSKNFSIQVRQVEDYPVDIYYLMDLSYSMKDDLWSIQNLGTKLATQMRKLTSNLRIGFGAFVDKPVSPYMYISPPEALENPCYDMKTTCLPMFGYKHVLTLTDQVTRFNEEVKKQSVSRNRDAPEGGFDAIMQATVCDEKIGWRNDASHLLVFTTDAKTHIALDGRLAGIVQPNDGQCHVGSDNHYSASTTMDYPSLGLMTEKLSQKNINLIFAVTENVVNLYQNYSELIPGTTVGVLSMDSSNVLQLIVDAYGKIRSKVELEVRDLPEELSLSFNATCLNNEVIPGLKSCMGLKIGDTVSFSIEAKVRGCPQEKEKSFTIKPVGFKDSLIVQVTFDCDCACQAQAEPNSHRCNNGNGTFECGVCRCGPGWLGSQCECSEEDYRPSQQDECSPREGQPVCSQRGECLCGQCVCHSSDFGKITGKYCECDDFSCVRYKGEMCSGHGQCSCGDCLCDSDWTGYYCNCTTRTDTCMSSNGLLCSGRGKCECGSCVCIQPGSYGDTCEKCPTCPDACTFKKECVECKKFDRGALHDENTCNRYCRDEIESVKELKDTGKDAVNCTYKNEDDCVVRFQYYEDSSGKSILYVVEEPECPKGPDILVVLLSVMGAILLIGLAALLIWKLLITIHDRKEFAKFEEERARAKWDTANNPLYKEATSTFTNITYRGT
UniProt P06756, 31-889 limits assumed: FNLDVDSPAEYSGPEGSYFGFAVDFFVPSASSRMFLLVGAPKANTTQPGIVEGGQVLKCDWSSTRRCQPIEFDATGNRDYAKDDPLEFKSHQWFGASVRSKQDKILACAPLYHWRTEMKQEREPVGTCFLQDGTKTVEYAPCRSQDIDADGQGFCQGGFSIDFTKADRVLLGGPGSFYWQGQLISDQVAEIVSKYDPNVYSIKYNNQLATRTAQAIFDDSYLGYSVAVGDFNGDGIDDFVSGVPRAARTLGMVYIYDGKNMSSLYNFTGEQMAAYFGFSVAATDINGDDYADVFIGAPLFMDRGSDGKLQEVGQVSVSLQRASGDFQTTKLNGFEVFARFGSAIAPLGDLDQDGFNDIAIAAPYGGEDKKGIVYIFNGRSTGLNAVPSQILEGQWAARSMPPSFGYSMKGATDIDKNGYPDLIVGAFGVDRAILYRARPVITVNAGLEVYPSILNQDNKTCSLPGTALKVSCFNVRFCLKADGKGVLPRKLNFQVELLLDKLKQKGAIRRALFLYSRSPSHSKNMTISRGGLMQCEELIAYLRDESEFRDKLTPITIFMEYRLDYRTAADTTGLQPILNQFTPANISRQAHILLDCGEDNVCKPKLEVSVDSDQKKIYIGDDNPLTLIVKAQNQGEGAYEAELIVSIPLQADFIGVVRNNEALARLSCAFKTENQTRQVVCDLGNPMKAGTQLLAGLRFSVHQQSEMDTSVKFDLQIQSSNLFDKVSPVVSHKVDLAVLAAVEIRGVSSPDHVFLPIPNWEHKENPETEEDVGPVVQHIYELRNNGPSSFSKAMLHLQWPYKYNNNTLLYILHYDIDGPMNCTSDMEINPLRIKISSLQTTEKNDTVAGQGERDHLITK
UniProt P06756, 891-1048 partner limits assumed: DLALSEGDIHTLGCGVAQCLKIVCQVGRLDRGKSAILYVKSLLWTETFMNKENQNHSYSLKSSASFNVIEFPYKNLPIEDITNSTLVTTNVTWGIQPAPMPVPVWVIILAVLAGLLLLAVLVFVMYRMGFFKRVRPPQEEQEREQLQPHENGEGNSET

An IC50 of 371 nM was found for `O=C(O)CC1c2ccccc2C2CN(C(=O)Cc3cccc(NC4=NCC(O)CN4)c3)CCC12` (racemic) in this work.

Source: patent US7351711B2, “Tricyclic indanyls as integrin inhibitors” (Janssen Pharmaceutical, N.V., priority 2003, dated 2008)
